# Measured values from PubChem BioAssay AID1631 (National Center for Advancing Translational Sciences (NCATS), 2009).
# Protein sequences, listed by entry. Tags and fused reporters are not part of them.
# UniProt P14618, whole entry: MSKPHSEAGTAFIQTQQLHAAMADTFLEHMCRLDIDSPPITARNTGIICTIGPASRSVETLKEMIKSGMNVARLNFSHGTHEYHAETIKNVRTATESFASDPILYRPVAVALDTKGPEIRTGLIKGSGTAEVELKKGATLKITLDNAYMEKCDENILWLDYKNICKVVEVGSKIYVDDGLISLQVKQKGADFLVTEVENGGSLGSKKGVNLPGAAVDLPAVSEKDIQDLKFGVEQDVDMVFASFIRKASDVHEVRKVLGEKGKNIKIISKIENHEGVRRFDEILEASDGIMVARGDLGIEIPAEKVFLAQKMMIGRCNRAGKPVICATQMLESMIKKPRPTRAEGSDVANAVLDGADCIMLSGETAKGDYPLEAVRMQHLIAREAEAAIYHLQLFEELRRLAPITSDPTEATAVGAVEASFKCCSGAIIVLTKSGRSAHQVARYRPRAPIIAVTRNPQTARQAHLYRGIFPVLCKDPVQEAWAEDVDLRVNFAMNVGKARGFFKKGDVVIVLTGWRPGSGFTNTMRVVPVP
# Only a part is listed here, and it is no random draw. Activity calls are given as the source filed them. Calls follow the shape of the dose curve; as a rule, active = well fitted activation curve with a large enough effect; inconclusive = small, poorly fitted or top-dose-only effect; inactive = no such curve, though single readings can be large or run the other way.
# Target: Pyruvate kinase PKM (Homo sapiens) (UniProt P14618)
# Assay: qHTS Assay for Activators of Human Muscle isoform 2 Pyruvate Kinase; also: nearly all actives have a fitted effect of over 55% in size
# Details: purified PKM2, Kinase-Glo ATP luminescence, 0% is enzyme alone, no compound; at 57.5 µM (top of the series) unless noted
# From the text: NIH Chemical Genomics Center [NCGC] Matthew G. Vander Heiden, M.D., Ph.D. [Harvard Medical School, 77 Avenue Louis Pasteur, Boston, MA 02115] MLPCN Grant: 1 R03 MH085679-01 NCGC Assay Overview: Human pyruvate kinase muscle 2 (hPK-M2) enzyme was supplied as a highly purified (>95% pure) preparation from Harvard Medical School and assayed for its ability to generate ATP from ADP using phosphoenolpyruvate (PEP) as a substrate. ATP generation was detected in a coupled reaction by luciferase-mediated luminescence, an ATP-dependent process. […] The enzyme was assayed at an intermediate level of activity to screen for both inhibitors and activators.
# NCGC Assay Protocol Summary: Three uL of substrate mix (at r.t.) in assay buffer (50 mM Imidazole pH7.2, 50 mM KCl, 7 mM MgCl2, 0.01% Tween 20, 0.05% BSA) was dispensed into white solid bottom 1,536 well microtiter plates so that the final concentrations of substrates in the assay were 0.1 mM ADP and 0.5 mM PEP. 23 nL of compound were delivered by a pin tool and 1 uL of enzyme mix in assay buffer (4 degree Celsius) was added. Plates were incubated at room temperature for 1 hour. Two uL of detection mix (Kinase-Glo, Promega; at 4 degree Celsius protected from light) was added and luminescence read by a ViewLux (Perkin Elmer) at 5 second exposure/plate. Data were normalized to the uninhibited and AC100 inhibition (no enzyme). To monitor activation, the first column contained a titration of the activator, NCGC00031955-01 (16-point 1:2 dilutions in duplicate starting at 57 uM) and the first 16 rows of column 4 contained 57 uM of NCGC00031955-01.
# % is scaled to controls: 0 for no effect and ±100 for the full control effect.
row,SMILES,activation
1,CCCN1CCC(Nc2cc(OC)cc(OC)c2)CC1,inactive: -0.216% [at 11.5 µM]
2,c1ccc(CN2CCC(Nc3ccccc3)CC2)cc1,inactive: -7.64%
3,CCOC(=O)C(CC)C1=NC(C)(C)Cc2ccccc21.O=[N+]([O-])c1cc([N+](=O)[O-])c(O)c([N+](=O)[O-])c1 (stereo not drawn),inactive: 1.59%
4,N#Cc1ccc(C(=O)NCC2(N3CCCCC3)CCCCC2)cc1,inactive: 0.736%
5,O=C(O)c1cccc(Nc2c([N+](=O)[O-])cc([N+](=O)[O-])cc2[N+](=O)[O-])c1,inactive: -11.4%
6,O=C(OC1CN2CCC1CC2)C1c2ccccc2C=Cc2ccccc21 (stereo not drawn),inactive: 1.26%
7,N/C(=N\O)c1c(N)no[n+]1[O-],inactive: -2.94%
8,CCOC(=O)N1CCC(Nc2ccc(C)cc2)CC1,inactive: -0.795% [at 11.5 µM]
9,COc1ccc(C(=O)NCC2(N3CCOCC3)CCCCC2)cc1OC,inactive: 3.19%
10,CCCOc1ccc(C)cc1CN(CCCl)CCCl,inactive: -0.685%
11,CN1CCC(Nc2ccc(Cl)cc2)CC1,inactive: 5.3%
12,CCC(CO)(C(=O)OC1CN2CCC1CC2)c1ccccc1 (stereo not drawn),inactive: -0.759%
13,COc1cc(OC)cc(C(=O)NCC2(N3CCOCC3)CCCCC2)c1,inactive: 1.05%
14,CC(C)(C)OC(=O)N1CCC(Nc2ccccc2)CC1,inactive: 5.67%
15,CN1CCC(Nc2ccc(F)c(Cl)c2)CC1,inactive: 2.03% [at 11.5 µM]
16,CCOc1ncccc1C(=O)NCC1(N2CCOCC2)CCCCC1,inactive: -0.156%
17,CCN1CCC(Nc2cccc(F)c2)CC1,inactive: 0.933%
18,Fc1ccccc1NC1CCN(Cc2ccccc2)CC1,inactive: 4.03%
19,Cc1ccc(OCC(C)C)c(CN(CCCl)CCCl)c1,inactive: -0.436%
20,CCOC(=O)N1CCC(Nc2cccc(C)c2)CC1,inactive: 5.16%
21,COc1ccc(NC2CCN(CCc3ccccc3)CC2)c(OC)c1,inactive: 2.7%
22,CCOC(=O)N1CCC(Nc2ccc(F)cc2)CC1,inactive: -19.1%
23,O=C(NCC1(N2CCCCC2)CCCCC1)c1ccc(F)cc1,inactive: 0.0454%
24,CCOc1ccc(C)cc1CN(CCCl)CCCl,inactive: -0.929%
25,CCOC(=O)N1CCC(Nc2ccc(OC)cc2)CC1,inactive: -0.149%
26,O=C(OC1CN2CCC1CC2)C1c2ccccc2Oc2ccccc21 (stereo not drawn),inactive: -0.1%
27,N#CC1(Nc2ccccc2)CCN(Cc2ccccc2)CC1,inactive: -2.58%
28,O=C(NCC1(N2CCOCC2)CCCCC1)c1cc2ccccc2o1,inactive: -5.91%
